Among the data in PubChem BioAssay AID628 (Vanderbilt High Throughput Screening Facility, 2007) are B-score values, retold here.

The chains behind the UniProt entries cited, without tags or fusion partners. Where a name states a change or a piece, a line headed by the entry shows the natural chain unless it says otherwise.
UniProt P08482: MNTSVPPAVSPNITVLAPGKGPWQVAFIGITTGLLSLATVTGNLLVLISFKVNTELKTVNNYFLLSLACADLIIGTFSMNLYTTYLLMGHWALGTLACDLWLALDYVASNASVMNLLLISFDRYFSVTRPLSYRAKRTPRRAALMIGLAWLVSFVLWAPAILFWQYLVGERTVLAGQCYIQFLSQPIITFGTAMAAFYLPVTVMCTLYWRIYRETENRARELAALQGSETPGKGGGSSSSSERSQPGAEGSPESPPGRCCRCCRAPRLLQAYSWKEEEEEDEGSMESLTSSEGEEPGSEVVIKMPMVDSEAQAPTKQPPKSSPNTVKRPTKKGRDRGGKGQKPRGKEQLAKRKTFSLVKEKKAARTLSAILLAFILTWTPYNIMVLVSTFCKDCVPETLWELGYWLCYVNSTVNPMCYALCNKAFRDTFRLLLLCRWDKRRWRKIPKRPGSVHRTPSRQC

This is a selection; strong and weak results do not stand in their true shares. The source holds several records for some structures; these can differ, active in one and inactive in another. Active and inactive are the calls of the source.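 Rule for the calls: active = calcium fluorescence response, raw or row-and-column corrected B-score, differing from the plate sample mean either way at a set confidence level, mostly lower; inactive = the rest.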

The target in the assay is Muscarinic acetylcholine receptor M1 (Rattus norvegicus) (UniProt P08482). Nature of the assay: antagonists of rat M1 muscarinic receptor (AID 628). To be noted: CHO-M1 cells, Fluo-4 calcium, ACh EC80 antagonist mode; at 10 µM; active compounds read low.
In the case of `CNCCCN1c2ccccc2CCc2ccccc21`, the B-score was active: -14.8. In the case of `Cc1ccccc1C(OCCN(C)C)c1ccccc1` (stereo not drawn), the B-score was active: -13.7.

On to `OC(CCN1CCCCC1)(c1ccccc1)C1CCCCC1` (stereo not drawn), for which the B-score was active: -15.9.

Regarding `CN1CCC(=C2c3ccccc3CC(=O)c3sccc32)CC1`, the B-score was active: -15.4. For `OCCN1CCN(CCCN2c3ccccc3Sc3ccc(Cl)cc32)CC1`, the B-score is active: -5.8. `COc1cc2nc(N3CCN(C(=O)C4CCCO4)CC3)nc(N)c2cc1OC` (stereo not drawn): the B-score is active: -8.86. The value for `CN(C)CCCN1c2ccccc2CCc2ccc(Cl)cc21` was active: -13.9; that for `Cc1ccc(N(CC2=NCCN2)c2cccc(O)c2)cc1` was active: -8.3. For the compound `CCOC(=O)N1CCC(=C2c3ccc(Cl)cc3CCc3cccnc32)CC1`, the B-score is active: -9.37. The result for `CN1C2CCC1CC(OC(=O)c1c[nH]c3ccccc13)C2` (stereo not drawn) reads active: -4.23; that for `CCN(CC)CCOC(=O)C1(C2CCCCC2)CCCCC1`, active: -11.4; that for `CNCCCC12CCC(c3ccccc31)c1ccccc12`, active: -16.7. The result for `CC(C)[N+]1(C)[C@@H]2CC[C@H]1CC(OC(=O)C(CO)c1ccccc1)C2` (stereo partly drawn) reads active: -11.1.
